The values that follow come from ChEMBL document CHEMBL2424579, “Quinazolin-4-one derivatives as selective histone deacetylase-6 inhibitors for the treatment of Alzheimer's disease” (J Med Chem, 2013).

The species named for assay [1] is Homo sapiens. Briefly: Selectivity index, ratio of IC50 for human recombinant HDAC1 to IC50 for human recombinant HDAC6.
Assay [2] is filed under the species Homo sapiens. In words: Selectivity index, ratio of IC50 for human recombinant HDAC8 to IC50 for human recombinant HDAC6.

For `Cc1nc2cc(/C=C/C(=O)NO)ccc2c(=O)n1Cc1ccccc1`, the Ratio IC50 in assay [1] was determined as 60; in assay [2] it was 53.

As to `CCc1nc2cc(Cc3ccc(C(=O)NO)cc3)ccc2c(=O)n1CCc1ccccc1`, the values for the Ratio IC50 in assay [1] and in assay [2] were 539 and 19, respectively.

Take `CCc1nc2cc(F)c(/C=C/C(=O)NO)cc2c(=O)n1CCc1ccccc1`: the Ratio IC50 in assay [1] amounted to 243; in assay [2], 96.

With `O=C(/C=C/c1ccc2c(=O)n(CCc3ccccc3)cnc2c1)NO`, the values for the Ratio IC50 in assay [1] and in assay [2] were 14 and 17, respectively.

Turning to `CCc1nc2cc(/C=C/C(=O)NO)ccc2c(=O)n1CCc1ccc(F)cc1`, the Ratio IC50 in assay [1] stood at 49; in assay [2], 21.

For `CCc1nc2cc(/C=C/C(=O)NO)ccc2c(=O)n1CCc1ccc(OC)cc1`, the Ratio IC50 in assay [1] was determined as 44; in assay [2], 14.

For the molecule `CCc1nc2ccc(Cc3ccc(C(=O)NO)cc3)cc2c(=O)n1CCc1ccccc1`, the values for the Ratio IC50 in assay [1] and in assay [2] were 95 and 9, respectively.

For the molecule `CCc1nc2cc(/C=C/C(=O)NO)ccc2c(=O)n1CCCc1ccccc1`, the Ratio IC50 stood at 97 in assay [1] and 40 in assay [2].

As to `O=C(/C=C/c1ccc2c(=O)n(CCc3ccccc3)c(C3CC3)nc2c1)NO`, in assay [1], the Ratio IC50 came out at 11.

`CC(C)c1nc2cc(/C=C/C(=O)NO)ccc2c(=O)n1CCc1ccccc1`: the Ratio IC50 in assay [1] is 30.

For `CCc1nc2cc(/C=C/C(=O)NO)ccc2c(=O)n1CCc1ccccc1`, the Ratio IC50 in assay [1] was determined as 108; in assay [2] it was 107.
